Literature values as cited in paper PMC6438780 (Xenobiotica; the fate of foreign compounds in biological …, 2018).
Read-outs that look alike come from different tables or passages of the source.

Test system: liver microsomes of humans
Conditions: ref data sheets provided by the manufacturer, cited from earlier work

With `O=C(O)Cc1ccccc1Nc1c(Cl)cccc1Cl` [Dilofenac, diclofenac] as the compound, how does the “Dilofenac 4’-hydroxylation” value (human sample HH2) read?
Its value is 3.3 nmol/mg/min.

And the “Dilofenac 4’-hydroxylation” value (human sample HH47)?
Its value is 2.8 nmol/mg/min.
